These results are taken from ChEMBL document CHEMBL4828746, “Design, synthesis and evaluation of heteroaryldihydropyrimidine analogues bearing spiro ring as hepatitis B virus capsid protein inhibitors” (Eur J Med Chem, 2021).

Bounds are passed on as bounds.

A short description of data set [1]: Cytotoxicity against human HepDES19 cells assessed as reduction in cell viability measured after 3 days by MTS assay. It is filed as ADME, cell-based. As to conditions: hepdes19, 72 h, time 3 day.
Data set [2] in a line: Selectivity index, ratio of CC50 for human HepDES19 cells to EC50 for inhibition of capsid protein-mediated antiviral activity against HBV infected in human HepDES19 cells assessed as inhibition of DNA replication. As to conditions: read-out: Ratio CC50/EC50. It is filed as toxicity, cell-based. In a few lines: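 SI = mean CC50 / mean EC50, each from three independent 9-point assays. EC50 by strand-preferential qPCR of HBV DNA after 3 days of compound exposure in induced HepDES19 cells.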

As to `CCOC(=O)C1=C(CN2CCC3(CNC(=O)C3)C2)NC(c2nccs2)=NC1c1ccc(F)cc1Br` (stereo unspecified), the half-maximal cytotoxic concentration (CC50) in data set [1] was determined as 69.3 µM. Moreover, the selectivity ratio in data set [2] was 26.6.

For `CCOC(=O)C1=C(CN2CCC3(CC2)CN(C(=O)OC(C)(C)C)C3)NC(c2nccs2)=NC1c1ccc(F)cc1Br` (stereo unspecified), in data set [1], the CC50 is above 100 µM. Further, in data set [2], the selectivity ratio is above 9.65.

With `CCOC(=O)C1=C(CN2CCC3(CC2)OCCO3)NC(c2nccs2)=NC1c1ccc(F)cc1Br` (stereo unspecified), the CC50 in data set [1] was above 87 µM. In addition, in data set [2], the selectivity ratio is above 435.

In the case of `CCOC(=O)C1=C(CN2CCC3(CC(=O)N(Cc4ccccc4)C3=O)C2)NC(c2nccs2)=NC1c1ccc(F)cc1Br` (stereo unspecified), in data set [1], the 50% cytotoxic concentration (CC50) was above 88.4 µM. Moreover, the selectivity ratio in data set [2] is above 42.1.

As to `CCOC(=O)C1=C(CN2CCC3(CC2)CNC(=O)C3)NC(c2nccs2)=NC1c1ccc(F)cc1Br` (stereo unspecified), the CC50 in data set [1] is above 83.4 µM. In data set [2], the selectivity ratio was above 21.9.

Take `CCOC(=O)C1=C(CN2CCC3(C2)CN(C(=O)OC(C)(C)C)C3)NC(c2nccs2)=NC1c1ccc(F)cc1Br` (stereo unspecified): in data set [1], the CC50 was above 100 µM. Further, the selectivity ratio in data set [2] was above 11.3.

In the case of `CCOC(=O)C1=C(CN2CCC3(CC2)CNC3=O)NC(c2nccs2)=NC1c1ccc(F)cc1Br` (stereo unspecified), the CC50 in data set [1] is above 78.8 µM. Also, in data set [2], the selectivity ratio was above 67.4.

As for `CCOC(=O)C1=C(CN2CCC3(CC2)CC(=O)NC3=O)NC(c2nccs2)=NC1c1ccc(F)cc1Br` (stereo unspecified), the CC50 in data set [1] is 48.8 µM. In addition, the selectivity ratio in data set [2] amounted to 71.3.

With `CCOC(=O)C1=C(CN2CC3(CC2=O)CN(C(=O)OC(C)(C)C)C3)NC(c2nccs2)=NC1c1ccc(F)cc1Br` (stereo unspecified), the CC50 in data set [1] turned out to be 21.1 µM. In data set [2], the selectivity ratio came out at 1.59.

Take `CCOC(=O)C1=C(CN2CC3(CCN(C(=O)OC(C)(C)C)C3)CC2=O)NC(c2nccs2)=NC1c1ccc(F)cc1Br` (stereo unspecified): the CC50 in data set [1] is 22.3 µM. In addition, in data set [2], the selectivity ratio came out at 2.23.

`CCOC(=O)C1=C(CN2CCC3(CCNC3=O)CC2)NC(c2nccs2)=NC1c1ccc(F)cc1Br` (stereo unspecified): the CC50 in data set [1] came out at 58.4 µM. The selectivity ratio in data set [2] was 17.

Turning to `CCOC(=O)C1=C(CN2CCC3(CCN(C(=O)OC(C)(C)C)C3)C2)NC(c2nccs2)=NC1c1ccc(F)cc1Br` (stereo unspecified), in data set [1], the CC50 is above 100 µM. The selectivity ratio in data set [2] was above 20.7.

Turning to `CCOC(=O)C1=C(CN2CCC3(CCN(C(=O)OC(C)(C)C)C3)C2=O)NC(c2nccs2)=NC1c1ccc(F)cc1Br` (stereo unspecified), the CC50 in data set [1] was above 83.4 µM. For the same molecule, the selectivity ratio in data set [2] was above 16.1.

A word on the CC50: it is the concentration giving 50% cytotoxicity.
